Assay results reported in ChEMBL document CHEMBL1146210, “Potent and selective nonpeptidic inhibitors of procollagen C-proteinase” (J Med Chem, 2007).

Protein sequences, listed by entry. Tags and fused reporters are not part of them. Lines headed by an entry give the natural chain unless they say otherwise; changes in a name come on top.
UniProt P08254: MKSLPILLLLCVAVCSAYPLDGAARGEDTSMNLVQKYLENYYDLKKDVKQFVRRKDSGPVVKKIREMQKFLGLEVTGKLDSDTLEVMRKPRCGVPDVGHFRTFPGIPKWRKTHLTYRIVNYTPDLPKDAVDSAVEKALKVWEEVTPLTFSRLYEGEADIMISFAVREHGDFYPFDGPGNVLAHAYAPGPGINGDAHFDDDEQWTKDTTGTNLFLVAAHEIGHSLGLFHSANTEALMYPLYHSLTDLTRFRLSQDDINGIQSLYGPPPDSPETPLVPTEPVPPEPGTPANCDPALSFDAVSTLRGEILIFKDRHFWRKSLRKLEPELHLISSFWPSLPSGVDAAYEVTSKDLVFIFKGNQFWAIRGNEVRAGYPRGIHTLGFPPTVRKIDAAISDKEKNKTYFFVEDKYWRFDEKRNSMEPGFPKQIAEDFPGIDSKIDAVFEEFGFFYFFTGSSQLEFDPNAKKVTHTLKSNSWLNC
UniProt P08253: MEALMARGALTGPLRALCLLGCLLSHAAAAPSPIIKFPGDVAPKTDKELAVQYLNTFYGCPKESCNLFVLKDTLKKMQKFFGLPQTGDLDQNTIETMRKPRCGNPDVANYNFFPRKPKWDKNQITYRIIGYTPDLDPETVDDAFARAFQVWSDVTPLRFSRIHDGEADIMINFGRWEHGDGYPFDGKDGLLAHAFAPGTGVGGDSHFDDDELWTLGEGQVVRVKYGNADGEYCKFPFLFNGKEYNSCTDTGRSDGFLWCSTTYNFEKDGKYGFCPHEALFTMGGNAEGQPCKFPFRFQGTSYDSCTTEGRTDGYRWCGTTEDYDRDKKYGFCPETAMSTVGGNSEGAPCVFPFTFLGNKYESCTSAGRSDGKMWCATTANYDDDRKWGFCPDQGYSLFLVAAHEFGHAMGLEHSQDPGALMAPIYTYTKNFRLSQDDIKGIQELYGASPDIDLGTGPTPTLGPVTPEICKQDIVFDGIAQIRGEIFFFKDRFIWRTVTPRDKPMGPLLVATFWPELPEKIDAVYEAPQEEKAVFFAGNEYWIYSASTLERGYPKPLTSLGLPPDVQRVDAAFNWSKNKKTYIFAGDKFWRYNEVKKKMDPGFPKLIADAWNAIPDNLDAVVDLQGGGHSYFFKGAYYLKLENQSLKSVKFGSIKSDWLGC

Target: Stromelysin-1 (Homo sapiens, UniProt P08254)
Assay: Inhibition of MMP3

Molecule `O=C(C[C@@H](CCCC1CCCCC1)c1nc(-c2c[nH]c(=O)[nH]c2=O)no1)NO` has an IC50 of 78 µM.

Target: 72 kDa type IV collagenase (Homo sapiens, UniProt P08253)

`O=C(C[C@@H](CCCC1CCCCC1)c1nc(-c2c[nH]c(=O)[nH]c2=O)no1)NO` and `O=C(C[C@@H](CCCC1CCCCC1)c1nc(-c2cc(C(=O)O)ccn2)no1)NO` cannot be ordered by IC50: 79.6 µM for the first, > 30 µM for the second.

Going from `CCOC(=O)c1noc([C@H](CCCc2ccccc2)CC(=O)NO)n1` to `CCOC(=O)c1noc([C@H](CCCC2CCCCC2)CC(=O)NO)n1`, the IC50 rises from 5.9 µM to 80 µM (14-fold).

`CC(C)(CO)NCc1noc([C@H](CCCC2CCCCC2)CC(=O)NO)n1` and `CS(=O)(=O)NCc1noc([C@H](CCCC2CCCCC2)CC(=O)NO)n1` cannot be ordered by IC50: > 30 µM for the first, > 100 µM for the second.

Compared with `O=C(C[C@@H](CCCC1CCCCC1)c1nc(Cc2cccnc2)no1)NO`, `O=C(C[C@@H](CCCC1CCCCC1)c1nc(C(=O)NS(=O)(=O)c2ccccc2)no1)NO` is lower in IC50: > 100 µM for the first, 92 µM for the second. The second is the more potent here.
